This note sets out measurements from patent US7084106.

Chains of the proteins cited; added tags and fusions are not shown. Residues count along the entry.
UniProt P02745, 23-245 limits assumed, chain 1 of 3: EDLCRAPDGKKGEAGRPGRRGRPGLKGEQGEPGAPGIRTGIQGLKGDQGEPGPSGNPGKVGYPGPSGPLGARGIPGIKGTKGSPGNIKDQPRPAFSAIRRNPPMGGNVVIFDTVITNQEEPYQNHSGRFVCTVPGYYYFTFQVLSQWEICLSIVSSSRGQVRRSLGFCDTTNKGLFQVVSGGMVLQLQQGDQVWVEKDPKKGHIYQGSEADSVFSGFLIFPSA

Values joined by “and” are separate entries in the source; they are usually repeats but may differ in a detail not shown here. Equal values may be shown once.

For assay [1], the target named is complement component C1q (in human serum) (human) (UniProt P02745). Put plainly: cell-based or functional assay.
Assay [2] has as its target complement component C3 (in human serum) (human) (UniProt P01024). Put plainly: cell-based or functional assay.

For “Abeta1-42 (QCB, Hopkinton, Mass.), fibrillar (from UniProt P05067 672-713) (peptide)”, the complement activation measured as SC5b-9 formation (enzyme immunoassay), normal human serum with 50 uM Abeta was 150 ng/mL and 200 ng/mL in assay [1]; 150 ng/mL and 200 ng/mL in assay [2].
